# Measurements taken from patent US20050049231A1, “Treatment method” (priority 2001, published 2005).
# Conditions: baboons with induced endometriosis
compound,measurement,setting,value
"CCC1(c2ccc(N)cc2)CCC(=O)NC1=O (centres unmarked) [C14-labelled aminoglutethimide, “D,L”-3-“4-Aminophenyl”-3-ethyl-2,6-piperidinedione[Phenyl-14C“U”]]",blood levels of radioactivity,"intra-vaginal doses of 0.3, 0.6 and 0.9 mCi in DMSO/glycerol, systemic blood samples at time intervals",≤ 2 c.p.m. per microgram
same,"transfer from vagina to endometrial lesions (radioactive counts in lesion biopsies, FIG. 3)","intra-vaginal doses of 0.3, 0.6 and 0.9 mCi, biopsies at three hours",transfer of aromatase inhibitor from vagina to endometrial lesions
